A short description of this data set: In-vivo tolerability in the mouse. To be noted: female, NMRI nude, oral, twice daily, after 5 days of treatment, read-out: maximum tolerated treatment dose (MTD), twice daily administration. Also on record: species or system female NMRI nude mice. How it is done:
The substances were formulated in NMP/PEG300 (1/9 V/V). They were administered orally, in an amount of 10 ml/kg, once or twice daily for a period of 5 to 7 days to female NMRI nude mice (6-8 weeks old; 3 animals per group). Body weight and mortality of the mice were monitored daily up to the end of the study. Toxicity was defined as follows: ≧10% substance-induced deaths or ≧20% weight loss.

`Cc1sc2c(c1C)C(c1ccc(Cl)cc1)=N[C@@H](CC(=O)OC(C)(C)C)c1nnc(C)n1-2` [Example V1, tert-Butyl[(S)-4-(4-chlorophenyl)-2,3,9-trimethyl-6H-thieno[3,2-f][1,2,4]triazolo[4,3-a][1,4]diazepin-6-yl]acetate, reference compound]: the MTD at 5 days came out at 50 mg/kg.
